Chains of the proteins cited; added tags and fusions are not shown.
ATP-dependent Clp protease proteolytic subunit (Bacillus subtilis (strain 168)), P80244, UniProt P80244, whole entry, looked up: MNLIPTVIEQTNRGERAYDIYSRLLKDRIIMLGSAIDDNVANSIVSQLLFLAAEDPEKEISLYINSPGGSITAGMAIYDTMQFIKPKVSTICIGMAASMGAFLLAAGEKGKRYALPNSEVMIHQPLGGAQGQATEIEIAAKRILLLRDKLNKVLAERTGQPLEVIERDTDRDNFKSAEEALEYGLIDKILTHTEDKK

# Shown are actives, neighbours in structure and some others; about 3.7% of the full set was active somewhere.
# ClpP mod: qHTS Assay for Activators of ClpP. ATP-dependent Clp protease proteolytic subunit (Bacillus subtilis (strain 168)), P80244. purified B. subtilis ClpP, FRET peptide cleavage, 20 min. Potency, µM (highest dose often 57.5 µM). 340,000 tested, 1.9% active. AID 651965, 2013; active = well fitted falling curve with a large enough effect; inconclusive = small, poorly fitted or top-dose-only effect; inactive = no such curve, though single readings can be large or run the other way; note: the source files actives as falling curves though it sought activators and does not explain the sign; nearly all actives have a fitted effect of over 65% in size
#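 ClpP 10 microg/mL final, pH 8 Tris/KCl buffer with BSA, glycerol, Tween-20; compound pinned in; FRET-FV substrate; RT 20 min; Ex320/Em430; ΔFRET vs ADEP 5.8 microM, DMSO, no enzyme.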
# miR-21 FLuc: miR-21 reporter, rising signal. HeLa miR-21 FLuc reporter, luciferase, 48 h. Potency, µM (titrated, usually from 38.3 µM). 340,000 tested, under 10 active. AID 2288; active = well fitted rising curve with a large enough effect; inconclusive = small, poorly fitted or top-dose-only effect; inactive = no such curve, though single readings can be large or run the other way;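 also: miR-21 action dims this reporter so a rising signal means less miR-21 action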
#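 HeLa cells stably expressing CMV-driven firefly luciferase with a downstream miR-21 binding sequence, endogenously expressing miR-21, were treated with titrations (up to about 40uM final) for 48 hours at 37 degree Celsius. Luciferase luminescence was read after lysis.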
# A549 tox: kills or reduces viability of A549 cells in Nrf2 counter-screen; Potency, µM (top dose mostly 46 µM), actives largely listed as inhibitors; 390,000 tested, 0.16% active; A549 ARE-Fluc cells, CellTiter-Fluor viability, 18-24 h
#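 A549 ARE-Fluc cells in 5% FBS OPTI-MEM, 5000 cells/well, rested 2 h then exposed to compounds in concentration-response for 18-24 h at 37 °C. Viability by CellTiter-Fluor fluorescence (Ex 405/Em 525) after 30 min; luciferase luminescence (BugLite, 15 min, RT) read afterwards.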
# Nrf2 ARE act: Nrf2 pathway activation | AREc32 ARE-luciferase reporter (MCF7-derived line), luminescence, 24 h | Potency, µM (top dose mostly 46.1 µM), actives largely listed as activators | 410,000 tested, 0.31% active; note: nearly all actives have a fitted effect of over 65% in size
#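 For detection, Steady-Glo was added and plates sat 30 min at RT; before that, AREc32_Fluc cells grown overnight in OPTI-MEM/5% FBS had been treated with 23 nL compound for 24 hr at 37 deg C.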
# Nrf2 block: blocks Nrf2 signaling | A549 ARE-Fluc reporter, luciferase luminescence, 18-24 h | Potency, µM (series often up to 46 µM), actives largely listed as inhibitors | 360,000 tested, 2.1% active; note: nearly all actives have a fitted effect of over 60% in size
#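 A549 ARE_Fluc cells, 5000/well, 5% FBS OPTI-MEM; compounds in dose-response, 18-24 h at 37 °C/5% CO2; CellTiter-Fluor viability read (Ex 405/Em 525), then BugLite luciferase luminescence = Nrf2 activity.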
# IL-2 act: IL-2 activation | activation, % (series mostly up to about 46 µM) | IL-2 activation reporter assay, cell-based qHTS; stimulated with anti-CD3/CD4/CD28 beads; in transgenic mouse T cells | 360,000 tested, 0.065% active; in the data active = activation above about 50%; inconclusive = mostly about 30% to 49%
#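 Unstimulated transgenic mouse T cells, 750 per well, received compound and, after 60 minutes, anti-CD3/anti-CD4 bead plus anti-CD28 stimulation. EGFP and DsRed were quantified after 18 hours.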
# Numbers stand for hits; i = inactive; ? = inconclusive; nt = not tested or not shown; ! = not active in a repeat; [ ] = dose if it differs, or a comment. Unless noted, calls come from the whole dose curve; as a rule, active = well fitted curve in the direction sought with a large enough effect; inconclusive = small, poorly fitted or top-dose-only effect, or another doubt; inactive = no such curve, though single readings can be large; an effect the other way counts as inactive or inconclusive.
SMILES,ClpP mod,miR-21 FLuc,A549 tox,Nrf2 ARE act,Nrf2 block,IL-2 act
N#Cc1c(N)n(CCNC(=O)c2ccc(Cl)cc2)c2nc3ccccc3nc12,3.2µM,i,i,i,9.2µM,i
CCN(CC)CCNC(=O)c1[nH]c2ccccc2c1Sc1ccc(Cl)cc1,i,i,i,i,i,nt
COc1ccc(C2Nc3ccccc3-c3cc(C)nn32)c(OC)c1 (centres undefined),32µM,i,i,i,nt,nt
Cc1[nH]c2ccccc2c1SCCNC(=O)c1ccc(Br)o1,i,i,?,i,23µM,i
Cc1ccc(C(=O)N2CCN(c3ccc(F)cc3)CC2)cc1NC(=O)c1nsc2ccccc12,i,i,i,i,nt,nt
O=c1c(-c2ccco2)[n+]([O-])c2ccccc2n1OCc1c(F)cccc1F,nt,i,i,0.71µM,i,i
O=c1c(-c2ccco2)[n+]([O-])c2ccccc2n1OCc1ccccc1F,i,i,?,?,?,i
O=c1c(-c2ccco2)[n+]([O-])c2ccccc2n1OCc1ccccc1,i,i,i,3.2µM,i,i
CCOn1c(=O)c(-c2cc3ccccc3o2)[n+]([O-])c2ccccc21,i,i,i,i,?,52
CCCOc1ccc(-c2c(=O)n(OCc3ccc([N+](=O)[O-])cc3)c3ccccc3[n+]2[O-])cc1,28µM,i,i,i,i,i
CC(C)(C)C(=O)CSc1n[nH]c(-c2ccccc2)n1,i,nt,nt,nt,nt,nt
COc1cccc(C2c3c(ncn(Cc4cccs4)c3=N)Oc3ccc4ccccc4c32)c1 (centres undefined),nt,nt,i,nt,i,nt
COc1ccc(C2Nc3ccccc3C(=O)N2Cc2ccc(C(F)(F)F)cc2)cc1COc1ccc(NC(C)=O)cc1 (centres undefined),nt,nt,i,nt,?,nt
CCc1ccc(NC(=O)CCn2nc(-c3ccccc3OC)c3c(C)cc(C)nc32)cc1,i,i,i,i,?,nt
Cc1ccc(S(=O)(=O)c2cn(Cc3ccccc3Cl)c3ccc(F)cc3c2=O)cc1,i,i,i,i,i,nt
CCOc1ccc(-n2c(C)cc(/C=C3/C(=N)N4C(=NC3=O)SN=C4S(C)(=O)=O)c2C)cc1,i,i,?,i,4.6µM,i
Cc1cc(Br)ccc1NC(=O)c1cc2c(s1)-c1ccccc1SC2,14µM,i,i,i,?,nt
C/C(=N\Nc1cc(C(F)(F)F)ccc1Cl)c1ccccc1O,i,i,i,11µM,i,i
C/C(=N\Nc1ccc(F)cc1F)c1ccccc1O,nt,i,i,i,?,i
CCOC(=O)Cc1ccc(NC(=O)NCc2ccc3c(c2)CCN3C(=O)CC)cc1,i,i,i,i,nt,nt
Cc1cc2nc(-c3ccc(NC(=O)c4ccccc4F)cc3)oc2cc1C,i,i,i,i,?,nt
CC1=C(c2ccc(C)c(C)c2)S(=O)(=O)N(Cc2ccc(C(=O)NCc3ccccc3F)cc2)C1=O,14µM,i,i,i,i,nt
C[n+]1c(/C=C/c2ccnc3ccccc23)cc(/C=C/c2ccnc3ccccc23)c2ccccc21,i,nt,nt,nt,nt,nt
CN(C)c1ccc(-c2nnn(Cc3ccccc3Br)n2)cc1,28µM,i,i,i,i,i
c1ccc(Nc2c(-c3ccco3)nc3ccccn23)cc1,25µM,i,i,i,?,i
SMILES,ClpP mod,miR-21 FLuc,A549 tox,Nrf2 ARE act,Nrf2 block,IL-2 act
Cc1ccc(Nc2c(-c3ccco3)nc3ccccn23)cc1,25µM,i,i,i,?,i
Fc1ccc(Nc2c(-c3ccco3)nc3ccccn23)cc1,28µM!,i,i,i,?,i
c1coc(-c2nc3ccccn3c2Nc2ccc3c(c2)OCCO3)c1,i,i,i,i,i[9.27 µM],nt
COc1ccc(Nc2c(-c3ccco3)nc3ccc(C)cn23)cc1,i,i,i,i,i,i
COc1ccc(C)cc1Nc1n[n+](-c2ccccc2)c(-c2ccc(N(C)C)cc2)s1,i,i,i,i,?,i
Cc1ccc2c(c1)sc(-c1ccc(N(C)C)cc1)[n+]2C,?,i,?,i,2.1µM,i
